System: HL-60
Experiment: Differentiation inducing effect on HL-60 cells
Type: functional, Homo sapiens
How it was run: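 Line 1 is binding to bovine thymus vitamin D receptor. Lines 3 and 6 are differentiation induction in HL-60 cells.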

C=C1/C(=C\C=C2/CCC[C@]3(C)[C@@H]([C@H](C)CCCC(C)(C)O)CC[C@@H]23)C[C@H](O)[C@H](C)[C@@H]1O (stereo in doubt; form 1) was tested, and the Relative potency was 13.

— ChEMBL document CHEMBL1133115, “Synthesis, biological evaluation, and conformational analysis of A-ring diastereomers of 2-methyl-1,25-dihydroxyvitamin D(3) and their 20-epimers: unique activity profiles depending on the stereochemistry of the A-ring and at C-20” (2000)
